Results from patent US20040009534A1 (DYAX, published 2004).

Protein sequences, listed by entry. Tags and fused reporters are not part of them. Lines headed by an entry give the natural chain unless they say otherwise; changes in a name come on top. Residues count along the entry.
UniProt Q28522, 17-600 limits assumed: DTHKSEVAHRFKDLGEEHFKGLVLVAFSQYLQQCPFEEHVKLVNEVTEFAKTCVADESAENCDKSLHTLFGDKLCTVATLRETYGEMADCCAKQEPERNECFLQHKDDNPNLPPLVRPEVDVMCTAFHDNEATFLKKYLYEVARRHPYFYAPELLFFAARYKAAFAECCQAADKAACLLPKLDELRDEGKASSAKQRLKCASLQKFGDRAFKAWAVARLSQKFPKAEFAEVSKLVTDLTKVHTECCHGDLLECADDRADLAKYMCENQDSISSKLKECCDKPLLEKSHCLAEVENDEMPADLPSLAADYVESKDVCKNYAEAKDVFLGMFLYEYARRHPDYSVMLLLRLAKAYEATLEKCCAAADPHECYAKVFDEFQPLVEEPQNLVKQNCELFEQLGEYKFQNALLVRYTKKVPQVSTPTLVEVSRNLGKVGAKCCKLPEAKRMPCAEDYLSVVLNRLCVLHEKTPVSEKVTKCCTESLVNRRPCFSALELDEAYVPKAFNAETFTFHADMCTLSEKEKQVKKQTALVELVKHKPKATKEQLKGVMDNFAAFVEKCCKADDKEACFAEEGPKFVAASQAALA
UniProt P02769, 25-607 limits assumed: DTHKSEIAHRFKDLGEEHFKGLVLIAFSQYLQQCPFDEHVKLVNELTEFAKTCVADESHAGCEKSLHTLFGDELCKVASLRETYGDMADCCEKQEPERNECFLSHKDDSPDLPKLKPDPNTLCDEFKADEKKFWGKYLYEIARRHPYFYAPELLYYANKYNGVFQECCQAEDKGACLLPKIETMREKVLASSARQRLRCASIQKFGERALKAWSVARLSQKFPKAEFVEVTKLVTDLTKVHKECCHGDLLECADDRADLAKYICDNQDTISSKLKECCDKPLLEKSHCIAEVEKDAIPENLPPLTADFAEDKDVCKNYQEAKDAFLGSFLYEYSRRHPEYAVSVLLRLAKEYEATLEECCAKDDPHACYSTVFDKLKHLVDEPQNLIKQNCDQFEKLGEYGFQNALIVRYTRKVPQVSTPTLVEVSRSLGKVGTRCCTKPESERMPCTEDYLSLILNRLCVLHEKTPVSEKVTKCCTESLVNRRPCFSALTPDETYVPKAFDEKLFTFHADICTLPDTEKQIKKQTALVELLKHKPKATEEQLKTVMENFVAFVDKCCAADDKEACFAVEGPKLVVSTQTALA
UniProt P08835, 25-607 limits assumed: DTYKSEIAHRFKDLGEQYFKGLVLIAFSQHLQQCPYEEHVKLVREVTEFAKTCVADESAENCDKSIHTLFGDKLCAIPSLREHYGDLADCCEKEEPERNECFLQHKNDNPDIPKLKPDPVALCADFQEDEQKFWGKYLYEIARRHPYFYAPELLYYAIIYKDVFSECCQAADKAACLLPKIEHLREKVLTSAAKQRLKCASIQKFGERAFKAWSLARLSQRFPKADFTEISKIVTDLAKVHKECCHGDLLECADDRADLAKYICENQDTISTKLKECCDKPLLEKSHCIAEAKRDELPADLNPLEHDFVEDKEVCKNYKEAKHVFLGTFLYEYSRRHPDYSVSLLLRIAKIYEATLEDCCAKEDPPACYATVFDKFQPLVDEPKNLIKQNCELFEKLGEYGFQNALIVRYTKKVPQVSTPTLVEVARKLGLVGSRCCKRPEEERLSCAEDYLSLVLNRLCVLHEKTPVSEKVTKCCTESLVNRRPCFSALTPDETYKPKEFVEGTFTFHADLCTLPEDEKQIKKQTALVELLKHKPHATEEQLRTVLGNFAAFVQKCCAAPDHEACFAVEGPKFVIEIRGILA
UniProt P02768, 25-609: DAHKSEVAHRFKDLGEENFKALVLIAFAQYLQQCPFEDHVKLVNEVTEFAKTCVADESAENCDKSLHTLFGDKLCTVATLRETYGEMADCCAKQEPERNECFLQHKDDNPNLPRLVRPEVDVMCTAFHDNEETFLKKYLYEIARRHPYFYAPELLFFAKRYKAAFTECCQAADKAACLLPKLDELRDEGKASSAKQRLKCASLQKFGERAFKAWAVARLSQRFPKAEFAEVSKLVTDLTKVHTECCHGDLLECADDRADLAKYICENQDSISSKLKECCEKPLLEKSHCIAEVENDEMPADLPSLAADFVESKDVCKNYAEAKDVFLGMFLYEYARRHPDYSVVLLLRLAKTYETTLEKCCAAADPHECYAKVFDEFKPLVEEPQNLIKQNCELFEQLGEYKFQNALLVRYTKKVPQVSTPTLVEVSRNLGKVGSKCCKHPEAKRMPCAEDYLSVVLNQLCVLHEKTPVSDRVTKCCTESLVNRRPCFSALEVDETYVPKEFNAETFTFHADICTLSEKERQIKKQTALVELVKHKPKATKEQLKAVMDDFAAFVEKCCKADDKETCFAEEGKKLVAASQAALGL
UniProt P07724: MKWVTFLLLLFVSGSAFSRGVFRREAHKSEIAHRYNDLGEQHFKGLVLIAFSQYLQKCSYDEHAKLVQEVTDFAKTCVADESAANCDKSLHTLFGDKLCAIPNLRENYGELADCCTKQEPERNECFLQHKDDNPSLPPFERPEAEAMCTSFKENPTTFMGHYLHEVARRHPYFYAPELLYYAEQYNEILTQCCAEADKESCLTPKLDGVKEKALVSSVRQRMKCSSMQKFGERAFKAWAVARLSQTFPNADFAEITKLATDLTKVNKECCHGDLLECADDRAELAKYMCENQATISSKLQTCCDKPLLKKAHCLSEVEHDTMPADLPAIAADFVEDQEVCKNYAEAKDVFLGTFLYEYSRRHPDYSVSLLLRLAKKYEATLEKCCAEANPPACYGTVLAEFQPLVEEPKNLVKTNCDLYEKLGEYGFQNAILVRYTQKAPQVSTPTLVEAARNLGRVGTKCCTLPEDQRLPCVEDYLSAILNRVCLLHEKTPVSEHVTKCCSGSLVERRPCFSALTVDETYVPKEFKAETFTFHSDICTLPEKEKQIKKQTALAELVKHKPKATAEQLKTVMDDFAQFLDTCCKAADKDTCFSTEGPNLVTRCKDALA
UniProt P02770, 25-608 limits assumed: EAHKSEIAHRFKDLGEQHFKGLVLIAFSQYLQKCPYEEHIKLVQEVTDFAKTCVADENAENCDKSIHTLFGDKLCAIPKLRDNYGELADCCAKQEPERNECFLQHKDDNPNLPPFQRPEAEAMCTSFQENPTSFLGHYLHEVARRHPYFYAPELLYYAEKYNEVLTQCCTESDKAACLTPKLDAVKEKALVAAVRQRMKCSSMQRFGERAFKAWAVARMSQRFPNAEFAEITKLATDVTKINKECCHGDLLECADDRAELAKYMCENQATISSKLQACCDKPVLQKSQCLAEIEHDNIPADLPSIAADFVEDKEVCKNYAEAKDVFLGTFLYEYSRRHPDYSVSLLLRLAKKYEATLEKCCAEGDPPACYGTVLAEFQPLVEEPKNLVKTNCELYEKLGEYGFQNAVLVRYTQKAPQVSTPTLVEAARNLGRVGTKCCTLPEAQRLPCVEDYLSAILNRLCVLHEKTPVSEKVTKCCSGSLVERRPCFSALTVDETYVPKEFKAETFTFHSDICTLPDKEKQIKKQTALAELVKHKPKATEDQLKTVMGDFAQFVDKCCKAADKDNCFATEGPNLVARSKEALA
UniProt P49065, 25-608 limits assumed: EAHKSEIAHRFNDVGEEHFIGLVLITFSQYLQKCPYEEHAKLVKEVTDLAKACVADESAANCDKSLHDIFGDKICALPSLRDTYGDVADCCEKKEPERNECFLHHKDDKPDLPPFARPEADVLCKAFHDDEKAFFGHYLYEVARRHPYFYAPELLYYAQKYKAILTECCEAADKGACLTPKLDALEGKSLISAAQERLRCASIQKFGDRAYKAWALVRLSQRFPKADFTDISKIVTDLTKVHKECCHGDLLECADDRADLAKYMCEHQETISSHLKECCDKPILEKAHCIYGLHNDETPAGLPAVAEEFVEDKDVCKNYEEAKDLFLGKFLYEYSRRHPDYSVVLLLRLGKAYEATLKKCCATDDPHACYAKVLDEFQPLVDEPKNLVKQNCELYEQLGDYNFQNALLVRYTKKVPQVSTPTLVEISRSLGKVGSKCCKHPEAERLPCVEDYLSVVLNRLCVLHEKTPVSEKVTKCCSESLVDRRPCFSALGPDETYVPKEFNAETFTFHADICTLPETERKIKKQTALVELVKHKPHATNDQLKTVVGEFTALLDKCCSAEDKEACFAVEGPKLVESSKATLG

What was measured:
Rhesus serum albumin [1] = target: T1, Rhesus serum albumin (Rhesus, UniProt Q28522 17-600); test: labeled peptide, KD; PBS, pH 7.4, 0.14 M NaCl
bovine serum albumin [2] = target: T2, bovine serum albumin (Bovine, UniProt P02769 25-607); test: labeled peptide, KD; PBS, pH 7.4, 0.14 M NaCl
T2 construct: also called BSA

pig serum albumin = pig serum albumin (Pig, UniProt P08835 25-607); test: labeled peptide, KD; PBS, pH 7.4, 0.14 M NaCl
human serum albumin [3] = target: T3, human serum albumin (human, UniProt P02768 25-609); test: labeled peptide, KD; PBS, pH 7.4, 0.14 M NaCl
T3 construct: also called HSA

murine serum albumin [4] = target: T4, murine serum albumin (Mouse, UniProt P07724 25-608); test: labeled peptide, KD; PBS, pH 7.4, 0.14 M NaCl
T4 construct: also called MSA; mouse serum albumin

rat serum albumin [5] = target: T5, rat serum albumin (Rat, UniProt P02770 25-608); test: labeled peptide, KD; PBS, pH 7.4, 0.14 M NaCl
rabbit serum albumin [6] = target: T6, rabbit serum albumin (Rabbit, UniProt P49065 25-608); test: labeled peptide, KD; PBS, pH 7.4, 0.14 M NaCl
Rhesus serum albumin [7] = target: T1, Rhesus serum albumin; test: labeled peptide, KD; 3 mM phosphate, pH 6.2, 0 M NaCl
bovine serum albumin [8] = target: T2, bovine serum albumin; test: as above
human serum albumin [9] = target: T3, human serum albumin; test: as above
murine serum albumin [10] = target: T4, murine serum albumin; test: as above
rat serum albumin [11] = target: T5, rat serum albumin; test: as above
rabbit serum albumin [12] = target: T6, rabbit serum albumin; test: labeled peptide, KD; 3 mM phosphate, pH 6.2, 0 M NaCl; labeled peptide in solution; 3 mM phosphate, pH 6.2, 0 M NaCl

B1: DX-236 (peptide)
peptide: AEGTGDFWFCDRIAWYPQHLCEFLDPEGGGK
modifications: labeled (label not named in Example 4) for the KD determinations; coupled via a C-terminal lysine to NHS-Sepharose for the column tests
notes: Cyclic (disulfide) phage-display peptide
Rhesus serum albumin [1]
  Kd: 23 µM
Bovine serum albumin [2]
  Kd: 13.3 µM
Pig serum albumin
  Kd: 12 µM
Human serum albumin [3]
  Kd: 11 µM
Murine serum albumin [4]
  Kd: 32 µM
Rat serum albumin [5]
  Kd: 25 µM
Rabbit serum albumin [6]
  Kd: 18 µM
Rhesus serum albumin [7]
  Kd: 1.1 µM
Bovine serum albumin [8]
  Kd: 1.1 µM
Human serum albumin [9]
  Kd: 1.9 µM
Murine serum albumin [10]
  Kd: 5.5 µM
Rat serum albumin [11]
  Kd: 1.6 µM

B2: DX-321 (peptide)
peptide: AEGTGDRNMCKFSWIRSPAFCARADPE
modifications: labeled (label not named in Example 4) for the KD determinations; coupled via a C-terminal lysine to NHS-Sepharose for the column tests
Rabbit serum albumin [12]
  Kd: 32 µM
